We go through one molecule from PMC9887206, “Cationic biopolymer decorated Asiatic Acid and Centella asiatica extract incorporated liposomes for treating early-stage Alzheimer’s disease: An In-vitro and In-vivo investigation” (F1000Research, 2022).

This assay relates to AlCl3-induced AD model in rats. Put plainly: Histopathology of the brain, neuronal count in hippocampus CA1 and CA3. Format: in vivo, Wistar rats. The following applies: day 90, mean ±SE, n=6. As for the experimental part: Disease control: AlCl 3 (50 mg/kg) • 3. […] AlCl 3 (50 mg/kg) + CLAA (100 mg/kg)
The rats were euthanized on the 90 ^th day. The brain was perfused using ice-cold normal saline and then dissected to isolate the frontal cortex and hippocampus. Hippocampus was sectioned, and tissue processing was done. The tissue was stained with 0.1 % crystal violet stain and observed under the microscope (Zeiss Primo Star Digital, Germany). Photographs of the CA1 and CA3 areas of the hippocampus were taken, and the number of normal healthy neurons out of 100 neurons was counted with the help of image J software (version 1.53t).

The structures appear in SMILES notation.

For `CCN(C)C(=O)Oc1cccc([C@H](C)N(C)C)c1` [Standard, Rivastigmine], the “Neuronal count (out of 100) CA1” value amounted to 50.75±3.70 and the “Neuronal count (out of 100) CA3” value was found to be 54.21±1.47.
